Sequences of proteins named here, by UniProt entry; tags and fusion partners are left off. Residues count along the entry.
UniProt P22303, 32-614 limits assumed: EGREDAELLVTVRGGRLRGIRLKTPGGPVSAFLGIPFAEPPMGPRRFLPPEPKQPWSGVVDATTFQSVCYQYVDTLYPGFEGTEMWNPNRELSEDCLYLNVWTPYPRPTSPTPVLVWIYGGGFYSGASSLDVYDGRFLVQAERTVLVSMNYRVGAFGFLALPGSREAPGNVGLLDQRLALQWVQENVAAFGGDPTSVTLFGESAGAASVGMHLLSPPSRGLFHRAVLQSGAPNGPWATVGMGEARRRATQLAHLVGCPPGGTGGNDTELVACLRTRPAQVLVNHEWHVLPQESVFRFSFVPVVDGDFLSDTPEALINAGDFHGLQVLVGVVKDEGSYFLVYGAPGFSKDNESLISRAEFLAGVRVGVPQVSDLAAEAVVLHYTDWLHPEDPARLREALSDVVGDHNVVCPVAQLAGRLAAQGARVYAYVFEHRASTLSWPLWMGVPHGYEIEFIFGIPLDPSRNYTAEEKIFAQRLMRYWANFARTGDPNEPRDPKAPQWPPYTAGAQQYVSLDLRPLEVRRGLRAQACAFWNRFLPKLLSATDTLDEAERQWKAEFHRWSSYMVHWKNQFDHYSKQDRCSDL
UniProt P06276, 29-602 limits assumed: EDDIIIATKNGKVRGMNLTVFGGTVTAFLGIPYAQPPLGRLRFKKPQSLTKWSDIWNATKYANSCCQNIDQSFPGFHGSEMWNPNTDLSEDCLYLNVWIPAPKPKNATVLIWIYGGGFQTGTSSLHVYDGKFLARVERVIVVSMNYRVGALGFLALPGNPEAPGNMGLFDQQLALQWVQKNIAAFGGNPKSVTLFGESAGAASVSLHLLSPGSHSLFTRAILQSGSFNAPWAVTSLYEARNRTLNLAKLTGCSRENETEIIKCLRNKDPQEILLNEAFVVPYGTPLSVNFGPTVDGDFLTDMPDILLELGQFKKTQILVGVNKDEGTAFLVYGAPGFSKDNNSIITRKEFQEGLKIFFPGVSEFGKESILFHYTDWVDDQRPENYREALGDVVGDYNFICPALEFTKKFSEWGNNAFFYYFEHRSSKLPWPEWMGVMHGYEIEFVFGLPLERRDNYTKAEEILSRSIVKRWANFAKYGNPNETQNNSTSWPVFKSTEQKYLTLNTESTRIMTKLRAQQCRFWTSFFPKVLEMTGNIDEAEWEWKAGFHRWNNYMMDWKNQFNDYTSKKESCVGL

According to ChEMBL document CHEMBL5352458, “Novel slow-binding reversible acetylcholinesterase inhibitors based on uracil moieties for possible treatment of myasthenia gravis and protection from organophosphate poisoning” (2023):

Columns and labels:
[1] = molecular target: T1, Acetylcholinesterase (Homo sapiens, UniProt P22303); assay: Inhibition of human AChE using acetylthiocholine as substrate preincubated for 5 mins followed by substrate addition and measured after 2 mins by Perkin elmer based spectrophotometer analysis
[2] = molecular target: T2, Cholinesterase (Homo sapiens, UniProt P06276); assay: Inhibition of human BChE using butyrylthiocholine as substrate preincubated for 5 mins followed by substrate addition and measured after 2 mins by Perkin elmer based spectrophotometer analysis
[3] = Acute toxicity in ip dosed mouse; details: in vivo
[4] = molecular target: T1, Acetylcholinesterase; assay: Inhibition of AChE in human Erythrocyte
[5] = molecular target: T2, Cholinesterase; assay: Inhibition of human plasma BChE
[6] = system: Rattus norvegicus; assay: Anti-experimental autoimmune myasthenia gravis activity in Wistar rat assessed as increase in force of urinary bladder contraction at 0.1 mg/kg, ip measured for 15 mins by electromyogram analysis; details: 0.25 h
[7] = system: Rattus norvegicus; assay: Anti-experimental autoimmune myasthenia gravis activity in Wistar rat assessed as increase in amplitude decrement of action potential at 0.005 to 0.01 mg/kg, ip measured at 15 to 240 mins by electromyogram analysis; details: dose 0.005-0.01 mg/kg, time 15-240 min
[8] = molecular target: T1, Acetylcholinesterase; assay: Mixed competitive inhibition of human AChE assessed as inhibition of constant by Dixon plot analysis
[9] = molecular target: T1, Acetylcholinesterase; assay: Mixed uncompetitive inhibition of human AChE assessed as inhibition of constant by cornish-bowden plot analysis
[10] = molecular target: T2, Cholinesterase; assay: Mixed competitive inhibition of human BChE assessed as inhibition of constant by Dixon plot analysis

SMILES | IC50 [1] [nM] | IC50 [2] [nM] | LD50 [3] [mg/kg] | also measured
CC[N+](CC)(CCCCCn1c(=O)cc(C)n(CCCn2c(C)cc(=O)n(C)c2=O)c1=O)Cc1ccccc1C(F)(F)F | 2 |  |  | 
CC[N+](CC)(CCCCCn1c(=O)cc(C)n(CCCCCCn2c(C)cc(=O)n(C)c2=O)c1=O)Cc1ccccc1[N+](=O)[O-] | 0.1 | 6000 |  | 
CC[N+](CC)(CCCCCn1c(=O)cc(C)n(CCCCn2c(C)cc(=O)n(C)c2=O)c1=O)Cc1ccccc1C(F)(F)F.[Br-] |  |  | 1.9 | 
CC[N+](CC)(CCCCCn1c(=O)cc(C)n(CCCCn2c(C)cc(=O)n(C)c2=O)c1=O)Cc1ccccc1C(F)(F)F | 1 |  |  | 
Br.CC[N+](CC)(CCCCCn1c(=O)cc(C)n(CCCCCn2c(C)cc(=O)n(C)c2=O)c1=O)Cc1ccccc1[N+](=O)[O-] |  |  | 1.7 | 
CC[N+](CC)(CCCCCn1c(=O)cc(C)n(CCCCCn2c(C)cc(=O)n(C)c2=O)c1=O)Cc1ccccc1C(F)(F)F.[Br-] |  |  | 4.5 | 
Br.CC[N+](CC)(CCCCCn1c(=O)cc(C)n(CCCn2c(C)cc(=O)n(C)c2=O)c1=O)Cc1ccccc1[N+](=O)[O-] |  |  | 1.1 | 
CC[N+](CC)(CCCCCn1c(C)cc(=O)n(CCCCC[N+](CC)(CC)Cc2ccccc2)c1=O)Cc1ccccc1 |  |  |  | IC50 [4]: 0.14 nM; IC50 [5]: 10000 nM
Br.CC[N+](CC)(CCCCCn1c(=O)cc(C)n(CCCCn2c(C)cc(=O)n(C)c2=O)c1=O)Cc1ccccc1[N+](=O)[O-] |  |  | 1.4 | 
CC[N+](CC)(CCCCCn1c(=O)cc(C)n(CCCn2c(C)cc(=O)n(C)c2=O)c1=O)Cc1ccccc1[N+](=O)[O-] | 7 | 4000 |  | 
CC[N+](CC)(CCCCCn1c(=O)cc(C)n(CCCCn2c(C)cc(=O)n(C)c2=O)c1=O)Cc1ccccc1[N+](=O)[O-] | 0.6 | 25000 |  | 
CC[N+](CC)(CCCCCn1c(C)cc(=O)n(CCCCC[N+](CC)(CC)Cc2ccccc2)c1=O)Cc1ccccc1.[Br-].[Br-] |  |  | 1 | 
CC[N+](CC)(CCCCCn1c(=O)cc(C)n(CCCn2c(C)cc(=O)n(C)c2=O)c1=O)Cc1ccccc1C(F)(F)F.[Br-] |  |  | 15.1 | 
CN(C)C(=O)Oc1ccc[n+](C)c1.[Br-] |  |  | 2.7 | Activity [6]: 221%
CC[N+](CC)(CCCCCn1c(=O)cc(C)n(CCCCCCn2c(C)cc(=O)n(C)c2=O)c1=O)Cc1ccccc1C(F)(F)F.[Br-] |  |  | 10 | Activity [7]: 15.7%
CC[N+](CC)(CCCCCn1c(=O)cc(C)n(CCCCCn2c(C)cc(=O)n(C)c2=O)c1=O)Cc1ccccc1[N+](=O)[O-] | 0.4 | 40000 |  | 
CC[N+](CC)(CCCCCn1c(=O)cc(C)n(CCCCCCn2c(C)cc(=O)n(C)c2=O)c1=O)Cc1ccccc1C(F)(F)F | 0.2 | 40000 |  | Ki [8]: 0.15 nM; Ki [9]: 0.43 nM; Ki [10]: 35000 nM
CC[N+](CC)(CCCCCn1c(=O)cc(C)n(CCCCCn2c(C)cc(=O)n(C)c2=O)c1=O)Cc1ccccc1C(F)(F)F | 0.5 | 60000 |  | 
Br.CC[N+](CC)(CCCCCn1c(=O)cc(C)n(CCCCCCn2c(C)cc(=O)n(C)c2=O)c1=O)Cc1ccccc1[N+](=O)[O-] |  |  | 5.5 | 
